Reference: US11446398B2, “Regulated biocircuit systems” (Obsidian Therapeutics, Inc., priority 2016, dated 2022)

What was measured:
HEK293T cells = assay: IL12 p40 ELISA after transient transfection of FKBP-IL12 plasmids; format: cell-based, human; details: for Average IL12 ELISA reading, 10 μM Shield-1 / Average IL12 ELISA reading, No Shield-1: HEK293T transiently transfected with 200 ng or 1 μg plasmid, media diluted 1:50, p40 ELISA; for Average IL12 ELISA reading, 10 μM Shield-1: 10 μM Shield-1 for 6 hours; for Average IL12 ELISA reading, No Shield-1: left untreated 6 hours; for Increase in IL12 with Shield-1 over untreated: transient transfection, 10 μM Shield-1, 6 hours
Text: Several FKBP (DD)-IL12 and DHFR (DD)-IL12 constructs (as shown in Table 18) were cloned into pLVX-IRES-Puro lentiviral vectors. FKBP(DD) is positioned at either N-terminus (Construct ID # OT-IL12-001, OT-IL12-002 and OT-IL12-003) or C-terminus (OT-IL12-004, OT-IL12-005 and OT-IL12-009) of the fusion construct. ecDHFR (R12Y, Y100I) is located at the N-terminal end of the fusion construct (OT-IL12-007). A p40 signal sequence was inserted next to the DD or IL-12. In several constructs, a furin protease cleavage site or a modified furin site was included.
HEK293T cells were transiently transfected with 200 ng or 1 μg FKBP-IL12 plasmids (OT-IL12-001, OT-IL12-002, OT-IL12-003, OT-IL12-004, and OT-IL12-005), and treated with 10 μM Shield-1 or left untreated for 6 hours. Culture media was collected from transfected cells and diluted 1:50 to measure IL12 levels using p40 ELISA.

HEK-293T cells = assay: Human IL-15 ELISA, ligand dependent IL15 production; format: cell-based; details: 24 hrs
Procedure: To test ligand dependent IL15 production, 1 million HEK-293T cells were plated in a 6-well plate in growth media containing DMEM and 10% FBS and incubated overnight at 37° C. at 5% CO2. Cells were then transfected with 100 ng of OT-L15-001 (constitutive) or OT-IL15-002 (ecDHFR-IL15) using Lipofectamine 2000 and incubated for 48 hrs. Following the incubation, media was exchanged for growth medium containing 10 μM Trimethoprim or vehicle control and further incubated for 24 hrs. Media was collected and the undiluted media samples or media samples diluted 4, 16, 256, 1024, 4096 or 16384-fold were tested using human IL-15 ELISA.

How did the “Average IL12 ELISA reading, 10 μM Shield-1” value (HEK293T cells) turn out when “OT-IL12-001: p40 signal sequence; FKBP (F36V, L106P); linker1 (GGSGG); p40; linker2 (G4S)3; p35; SEQ ID NO 213299” was run?
Its value is 1748.95.

And the “Average IL12 ELISA reading, No Shield-1” value (HEK293T cells)?
The value was 1289.61.

What about the “Increase in IL12 with Shield-1 over untreated” value (HEK293T cells) of the same substance?
The value was “modest increase”.

With “OT-IL12-003: p40 signal sequence; FKBP (F36V, L106P); furin (SARNRQKRS); p40; linker ((G4S)3); p35; SEQ ID NO 213301” as the substance, how does the “Average IL12 ELISA reading, 10 μM Shield-1” value (HEK293T cells) read?
Its value is 2138.25.

And the “Average IL12 ELISA reading, No Shield-1” value (HEK293T cells)?
The value was 1762.55.

What about the “Increase in IL12 with Shield-1 over untreated” value (HEK293T cells) of the same substance?
The value was “modest increase”.

What does the source list for “OT-IL15-002: IL2 signal sequence; linker [EFSTEF]; ecDHFR (R12Y, Y100I); linker2 [GGSGG]; IL15; SEQ ID NO 213391”?
Average IL15 ELISA reading (HEK-293T cells; 10 μM TMP, media dilution 1 fold): 0.820; Average IL15 ELISA reading (HEK-293T cells; 10 μM TMP, media dilution 4 fold): 0.287; Average IL15 ELISA reading (HEK-293T cells; 10 μM TMP, media dilution 16 fold): 0.116; Average IL15 ELISA reading (HEK-293T cells; 10 μM TMP, media dilution 64 fold): 0.073; Average IL15 ELISA reading (HEK-293T cells; 10 μM TMP, media dilution 256 fold): 0.057; Average IL15 ELISA reading (HEK-293T cells; 10 μM TMP, media dilution 1024 fold): 0.048; Average IL15 ELISA reading (HEK-293T cells; 10 μM TMP, media dilution 4096 fold): 0.049; Average IL15 ELISA reading (HEK-293T cells; 10 μM TMP, media dilution 16384 fold): 0.049; Average IL15 ELISA reading (HEK-293T cells; Vehicle, media dilution 1 fold): 0.396; Average IL15 ELISA reading (HEK-293T cells; Vehicle, media dilution 4 fold): 0.154; Average IL15 ELISA reading (HEK-293T cells; Vehicle, media dilution 16 fold): 0.074; Average IL15 ELISA reading (HEK-293T cells; Vehicle, media dilution 64 fold): 0.056; Average IL15 ELISA reading (HEK-293T cells; Vehicle, media dilution 256 fold): 0.053; Average IL15 ELISA reading (HEK-293T cells; Vehicle, media dilution 1024 fold): 0.053; Average IL15 ELISA reading (HEK-293T cells; Vehicle, media dilution 4096 fold): 0.049; Average IL15 ELISA reading (HEK-293T cells; Vehicle, media dilution 16384 fold): 0.050
